Patent publication US6492416B1, “4,5-diaryl-3(2H)-furanone derivatives as cyclooxygenase-2 inhibitors” (Pacific Corporation, priority 1999, dated 2002)
Converted amounts (≈) assume the structure as drawn.

Biological target: T1, COX-2 (Mus musculus, UniProt Q05769)
T1 sequence (Q05769 18-604): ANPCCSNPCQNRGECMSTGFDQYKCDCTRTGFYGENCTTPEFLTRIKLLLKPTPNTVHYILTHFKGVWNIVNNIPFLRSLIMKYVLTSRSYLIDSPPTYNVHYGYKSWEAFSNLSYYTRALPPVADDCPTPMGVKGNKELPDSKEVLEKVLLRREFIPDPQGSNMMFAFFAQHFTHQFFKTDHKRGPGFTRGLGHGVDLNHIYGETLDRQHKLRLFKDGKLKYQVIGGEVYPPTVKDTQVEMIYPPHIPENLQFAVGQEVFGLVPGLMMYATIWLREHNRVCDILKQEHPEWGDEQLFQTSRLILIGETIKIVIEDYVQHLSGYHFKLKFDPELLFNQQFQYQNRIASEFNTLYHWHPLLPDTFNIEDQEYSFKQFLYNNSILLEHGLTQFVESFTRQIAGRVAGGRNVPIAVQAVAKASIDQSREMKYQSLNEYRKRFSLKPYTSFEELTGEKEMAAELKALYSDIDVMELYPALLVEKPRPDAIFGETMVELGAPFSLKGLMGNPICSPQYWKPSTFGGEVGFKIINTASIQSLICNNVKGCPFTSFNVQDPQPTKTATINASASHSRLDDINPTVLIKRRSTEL
Experiment: Evaluation of COX-2 activity: PGE2 formation in aspirin-treated, LPS-stimulated mouse peritoneal macrophages
Assay type: cell-based
Experimental: Evaluation of in vitro COX-2 and COX-1 Activity [J. Pharmacol. Exp. Ther. 166, 96 (1969)]
The abdominal skin of a C57BL/6 mouse was sanitized with 70% aqueous ethanol, and was removed without damaging the peritoneum. 5 ml of cold phosphate buffer solution (PBS) was then injected into the abdominal cavity. After a minute, the peritoneal fluid containing the macrophages was collected using a syringe and a needle. The collected fluid was centrifuged for 5 min at 1500 rpm to afford pellets of cells. The pellets were then dispersed in the RPMI-1640 culture medium containing 100 units/ml penicillin and 100 μg/ml streptomycin.
The pellets dispersed as above were treated with 500 μM aspirin in order to knock out the activity of the COX-1 enzymes in the cells. The suspension was then diluted with the RPMI-1640 medium to contain 1×10^6 cells/ml. […] The amount of PGE2 present in the collected solution was determined either by a known radio-immuno assay or by a known enzyme-immunoassay [Methods in Enzymol. […] The extent of COX-2 inhibition by a compound of the present invention was calculated by assuming, that the amount of PGE2 formed with the treatment of 10 μg/ml arachidonic acid was used is the maximum possible amount of PGE2, and that the amount of PGE2 formed without the treatment of arachidonic acid is the minimum possible amount of PGE2. […]

Row | Compound | IC50, μg/ml COX-2
1 | CC1(C)OC(c2ccc(S(C)(=O)=O)cc2)=C(c2ccccc2Cl)C1=O [Example 69] | 0.3 µg/mL (≈ 0.796 µM)
2 | CC1(C)OC(c2ccc(S(C)(=O)=O)cc2)=C(c2ccc(F)c(F)c2)C1=O [Example 80] | 0.05 µg/mL (≈ 0.132 µM)
